Where “and” joins values, the source holds several entries; their conditions need not be identical. Equal entries are not always repeated.
Tested on: KM mice
Assay: Mouse intraperitoneal glucose tolerance test (IPGTT)
Type: in vivo
Conditions: for Area under curve (AUC0-120min) of blood glucose during IPGTT, individual animals: animals 1-10, 1 mg/kg
Description: After 1 hour and 8 hours after administration, intraperitoneal glucose tolerance tests (IPGTT) were respectively performed, intraperitoneal injection of 1.5 g/kg glucose was performed, and blood was taken before (t=0) glucose injection and after 10 min, 20 min, 30 min, 60 min, 90 min and 120 min after glucose injection to determine the content of glucose in blood (YSI2700 biochemical analyzer).

[1] = IPGTT 1 h after single 1.0 mg/kg s.c. dose
[2] = IPGTT 8 h after single 1.0 mg/kg s.c. dose

HSA: human serum albumin, 1.0 mg/kg, control group of the mouse IPGTT [reference compound]
Area under curve (AUC0-120min) of blood glucose during IPGTT, Mean [1]: 889
Area under curve (AUC0-120min) of blood glucose during IPGTT, individual animals [1]: 1005 and 1096 and 818 and 713 and 724 and 778 and 817 and 1028 and 1220 and 688
Area under curve (AUC0-120min) of blood glucose during IPGTT, Mean [2]: 821
Area under curve (AUC0-120min) of blood glucose during IPGTT, individual animals [2]: 859 and 854 and 735 and 746 and 772 and 831 and 883 and 717 and 882 and 933
